{"source": "patent US20190247381A1"}
{"molecular_target": "FLAG-HA-Atoh1 (Mus musculus (Mouse)) (UniProt P48985)", "assay": "IP-MS: immunoprecipitation of Atoh1 and its associated binding partners, excised gel band, mass spectrometry", "units": {"Total peptide": "peptides"}}
{"substance": "TUFM (from UniProt P49411)", "Total peptide": 72}
{"substance": "RPL4 (from UniProt P36578)", "Total peptide": 106}
{"substance": "RPL3 (from UniProt P39023)", "Total peptide": 67}
